Test: Electrochemical stability on cycling

With “N,N′-(ethan-1,2-diyl)-4,4′-dimethyl-2,2′-bipyridinedium dibromide” the “electrochemical stability: decay” value (after 1000 cycles) was “less than 10%” and the electrochemical stability (result in words) was “excellent electrochemical stability”.
